Data as given in article PMC8131219 (Chemical research in toxicology, 2020).

By UniProt entry, the sequences of proteins in these tests, tags left out.
UniProt Q05940, whole entry: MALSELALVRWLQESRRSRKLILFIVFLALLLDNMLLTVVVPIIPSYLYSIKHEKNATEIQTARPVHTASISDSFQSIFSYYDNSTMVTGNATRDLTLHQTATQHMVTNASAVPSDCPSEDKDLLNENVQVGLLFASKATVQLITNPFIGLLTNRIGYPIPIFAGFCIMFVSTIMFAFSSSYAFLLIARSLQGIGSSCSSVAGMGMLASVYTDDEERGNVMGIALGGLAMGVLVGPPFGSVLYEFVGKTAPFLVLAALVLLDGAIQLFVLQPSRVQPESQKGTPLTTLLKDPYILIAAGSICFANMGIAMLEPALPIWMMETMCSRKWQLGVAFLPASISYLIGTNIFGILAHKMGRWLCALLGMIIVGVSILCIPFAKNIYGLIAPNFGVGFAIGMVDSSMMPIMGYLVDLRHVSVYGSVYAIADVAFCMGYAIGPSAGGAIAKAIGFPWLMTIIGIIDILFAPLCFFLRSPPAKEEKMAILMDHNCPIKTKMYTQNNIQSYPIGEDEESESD

Target: human VMAT2 (Homo sapiens, UniProt Q05940)
Type: cell-based

## COC(=O)[C@H]1[C@H]2C[C@@H]3c4[nH]c5cc(OC)ccc5c4CCN3C[C@H]2C[C@@H](OC(=O)c2cc(OC)c(OC)c(OC)c2)[C@@H]1OC [reserpine]
  Concentration showing essentially complete / total inhibition of VMAT2: 0.1 µM
